{"source": "ChEMBL document CHEMBL1145194", "about": "“A bivalent ligand (KDAN-18) containing delta-antagonist and kappa-agonist pharmacophores bridges delta2 and kappa1 opioid receptor phenotypes” (J Med Chem, 2005)", "key": {"[1]": {"system": "Mus musculus", "experiment": "Ratio of effective dose of compound producing agonistic activity in presence and absence of norbinaltorphimine (2.5 pmol) upon intrathecal administration in mouse tail flick assay"}, "[2]": {"system": "Mus musculus", "experiment": "Ratio of effective dose of compound producing agonistic activity in presence and absence of benzylidenenaltrexone (25 pmol) upon intrathecal administration in mouse tail flick assay"}, "[3]": {"system": "Mus musculus", "experiment": "Ratio of effective dose of compound producing agonistic activity in presence and absence of naltriben (50 pmol) upon intrathecal administration in mouse tail flick assay"}}}
{"smiles": "CN(C(=O)Cc1ccc(Cl)c(Cl)c1)C1CCCCC1N1CCCC1", "note": "(stereo not drawn)", "values": [{"measurement": "ED50 Ratio", "setting": "[1]", "value": 4.23}, {"measurement": "ED50 Ratio", "setting": "[2]", "value": 0.94}, {"measurement": "ED50 Ratio", "setting": "[3]", "value": 0.81}]}
